Data reported in patent publication US20190284149A1, “ARYL HYDROCARBON RECEPTOR MODULATOR” (ARIAGEN, INC., priority 2014, published 2019).

Target: T1, AhR receptor (Homo sapiens, UniProt P35869)
T1 construct: expression of native (Human Hepatoma Huh-7) AhR receptor reporter gene cells; endogenous in cells; host or cells: Human hepatoma Huh-7 reporter cells (firefly luciferase under receptor-specific response elements)
T1 sequence (P35869 11-848): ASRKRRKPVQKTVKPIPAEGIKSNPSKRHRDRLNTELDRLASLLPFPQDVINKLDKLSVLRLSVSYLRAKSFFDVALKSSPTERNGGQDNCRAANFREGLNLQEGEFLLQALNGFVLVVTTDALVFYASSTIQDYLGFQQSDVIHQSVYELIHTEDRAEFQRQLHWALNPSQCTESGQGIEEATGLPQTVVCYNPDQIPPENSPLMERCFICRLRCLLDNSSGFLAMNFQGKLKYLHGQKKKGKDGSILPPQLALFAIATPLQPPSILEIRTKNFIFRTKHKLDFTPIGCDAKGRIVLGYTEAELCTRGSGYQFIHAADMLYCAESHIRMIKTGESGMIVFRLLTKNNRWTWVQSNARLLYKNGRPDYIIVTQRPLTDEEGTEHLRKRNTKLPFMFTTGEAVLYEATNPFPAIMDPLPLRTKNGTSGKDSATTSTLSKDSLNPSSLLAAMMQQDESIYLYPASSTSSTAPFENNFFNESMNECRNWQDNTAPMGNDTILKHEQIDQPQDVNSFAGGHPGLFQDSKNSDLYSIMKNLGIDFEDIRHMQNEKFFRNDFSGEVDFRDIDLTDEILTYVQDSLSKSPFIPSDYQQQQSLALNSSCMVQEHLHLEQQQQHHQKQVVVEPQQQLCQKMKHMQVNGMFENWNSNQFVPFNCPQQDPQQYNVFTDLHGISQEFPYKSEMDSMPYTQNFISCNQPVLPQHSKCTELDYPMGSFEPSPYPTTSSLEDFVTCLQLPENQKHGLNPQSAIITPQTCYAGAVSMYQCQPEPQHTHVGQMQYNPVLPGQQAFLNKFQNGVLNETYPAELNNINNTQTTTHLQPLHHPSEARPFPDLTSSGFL
Assay: AhR agonism assay (luciferase reporter gene cells)
Type: cell-based
Method: Assay Materials (plasmids): expression of native (Human Hepatoma Huh-7) AhR receptor reporter gene cells, the reporter vector includes functional firefly luciferase gene linked to upstream receptor-specific genetic response elements (GRE).
The AhR agonism assay comprises the following three steps:
1. Cell implantation: a suspension of AhR receptor cells was prepared in cell recovery medium (CRM; FBS containing 10% activated carbon). Then, the prepared suspension (100 μl) was dispensed into wells of a white 96-well culture plate.
2. Right before the beginning of the experiment, Master Stocks were diluted to “2× concentration” treatment media with appropriate compound screening media (CSM: FBS containing 10% activated carbon). […]
3. Fluorescence detection and analysis: after completion of the incubation, the treatment media were discarded and 100 μL/well of luciferase detection reagent was added. The Ave RLU (average relative fluorescence intensity) of each well and the coefficient of variation for each experimental group were determined. The activity of AhR receptor with various concentrations of the test compounds was quantitatively determined using a ratio of Ave RLU^Test Cmpd of various concentrations of the test compounds in the experimental group to Ave RLU^Vehicle of the blank control group, and fold activation and EC50 were determined. […]

EC50 [µM] | Structure (SMILES)
10 to 100 | COC(=O)c1ccc(C(=O)c2c[nH]c3ccccc23)s1 [Compound 11]
0.001 to 1 | COC(=O)c1cccc(C(=O)c2c[nH]c3ccccc23)n1 [Compound 16]
